One molecule from patent publication US9168317B2, “In vivo imaging method of mood disorders” (GE Healthcare Limited, priority 2010, dated 2015) can be followed below.

The data set in a line: In vivo biodistribution method. Conditions: ratio olfactory bulb:striatum, 30 min after injection, Wistar rats.

Take `CCN(CC)C(=O)C1CCCc2c1c1cc(F)ccc1n2CC[18F]` (stereo not shown) [compound 9]: the “OB:Str 30 min” value is listed as 3.72.
